These are literature values, as cited in patent US12037329B2, “SphK inhibitors and methods of making and using same” (Washington University, priority 2021, dated 2024).

The chains behind the UniProt entries cited, without tags or fusion partners. Where a name states a change or a piece, a line headed by the entry shows the natural chain unless it says otherwise.
UniProt Q9NRA0: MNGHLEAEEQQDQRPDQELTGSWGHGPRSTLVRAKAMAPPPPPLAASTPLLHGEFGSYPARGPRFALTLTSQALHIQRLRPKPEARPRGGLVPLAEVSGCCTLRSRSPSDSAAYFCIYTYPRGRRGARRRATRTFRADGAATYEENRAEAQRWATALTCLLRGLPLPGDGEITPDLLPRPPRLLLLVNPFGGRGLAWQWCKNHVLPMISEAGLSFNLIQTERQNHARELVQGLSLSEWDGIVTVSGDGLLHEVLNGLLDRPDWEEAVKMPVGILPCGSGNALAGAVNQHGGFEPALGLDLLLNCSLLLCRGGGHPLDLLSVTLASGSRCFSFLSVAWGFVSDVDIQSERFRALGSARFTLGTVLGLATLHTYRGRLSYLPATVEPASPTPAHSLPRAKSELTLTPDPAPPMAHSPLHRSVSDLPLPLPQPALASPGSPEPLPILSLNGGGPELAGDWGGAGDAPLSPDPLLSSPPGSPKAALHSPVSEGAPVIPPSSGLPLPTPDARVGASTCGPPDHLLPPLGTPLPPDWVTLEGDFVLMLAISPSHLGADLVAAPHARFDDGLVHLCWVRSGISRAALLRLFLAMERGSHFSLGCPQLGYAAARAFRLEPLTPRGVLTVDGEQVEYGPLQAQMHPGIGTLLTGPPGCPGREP
UniProt Q9NYA1, whole entry: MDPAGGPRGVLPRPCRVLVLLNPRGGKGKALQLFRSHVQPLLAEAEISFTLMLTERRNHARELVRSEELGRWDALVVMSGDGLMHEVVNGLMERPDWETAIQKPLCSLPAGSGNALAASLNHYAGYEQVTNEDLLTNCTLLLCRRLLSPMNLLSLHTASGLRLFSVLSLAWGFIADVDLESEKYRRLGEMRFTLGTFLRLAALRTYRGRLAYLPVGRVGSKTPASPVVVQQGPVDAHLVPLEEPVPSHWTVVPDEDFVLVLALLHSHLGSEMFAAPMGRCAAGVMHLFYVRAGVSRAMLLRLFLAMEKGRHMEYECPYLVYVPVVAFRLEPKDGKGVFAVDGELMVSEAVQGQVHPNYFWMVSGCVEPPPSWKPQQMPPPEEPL

The target in one series is SphK2 (Homo sapiens (Human), UniProt Q9NRA0). The note with it: cited from earlier work.
For the next series, the target named is SphK1 (Homo sapiens (Human), UniProt Q9NYA1). The note with it: cited from earlier work.

A value given as a limit tells only on which side of the number the result lay.

Take ABC294640 [Compound 7]: the values for the IC50 on SphK2 and on SphK1 were 60 µM and at most 100 µM, respectively.
